# UUG fidelity: modulators of yeast start codon fidelity, primary screen, whole organism, S. cerevisiae, single point, plate reader; S. cerevisiae UUG-firefly luciferase reporter, luminescence/redox ratio; activity score, % at 18.7 µM; actives 0.13% (n = 350,000); AID 602363, 2012;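 active = replicate mean at a twofold rise or more, about +100% in these data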;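 also: firefly luciferase made from a UUG start codon reports start codon fidelity; reporter light over untreated wells divided by growth signal over untreated wells; some hits fall short of that in this replicate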
# CAL PDZ FP-1: CAL PDZ peptide-binding inhibitors, primary screen, biochemical, fluorescence polarization, Cer-tagged CAL PDZ, HTS; Golgi-associated PDZ and coiled-coil motif-containing protein (Homo sapiens), Q9HD26; purified CAL PDZ, TMR-peptide fluorescence polarization, 1 h; inhibition, % at 20 µM; hit rate 0.02% among 330,000; AID 504414, 2011;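 active = highest replicate inhibition of at least 40%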;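 note: plate controls were DMSO neutral control wells for no effect and unlabeled competitor peptide control wells for full effect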
#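 Material: tagged CAL PDZ domain; buffer or medium: 25 mM sodium phosphate pH 7.4, 150 mM NaCl, TCEP, IgG, Thesit; compound dosing: single point, 20 µM; schedule: 1 h incubation at room temperature before polarization reading; measured by: FP readout, S and P plane fluorescence; read-out basis: percent inhibition from loss of millipolarization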
# CDK5 inh: inhibitors of human CDK5/p35 kinase, primary screen, biochemical, single concentration; Cyclin-dependent kinase 5 (Homo sapiens) + Cyclin-dependent kinase 5 activator 1 (Homo …; hit rate 0.01% among 330,000; inhibition, % at 10 µM; Recombinant CDK5/p35, ADP-Glo luminescence, 60 min;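 active = highest replicate inhibition of at least 50% and at least 75% of replicates reaching 50%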;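 note: plate controls were DMSO neutral control for no effect and GW8510 at 10 µM for full effect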
# dFosB activator: activators of delta FosB homodimer, primary screen, biochemical, fluorescence polarization, TAMRA-CDK5 oligo, single point; Protein FosB (Mus musculus), P13346; purified delta FosB; percent of positive-control signal above neutral wells; activation, % at 25 µM; hit rate 0.99% among 340,000; AID 493131, 2011;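 active = mean activation above about 17%, with every replicate also reaching it, limit read from the data, passing the limit was not always enough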
# DYRK1A inh: rat Dyrk1A kinase inhibitors, primary screen, biochemical, single point, plate reader; ADP-Glo luminescence, NFATc1 peptide; inhibition, % at 12.5 µM; hit rate 0.43% among 310,000; AID 504441, 2011; in the data active = inhibition above about 50%;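 note: plate controls were vehicle with enzyme for no effect and no enzyme for full effect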
# CAL PDZ FP-2: untagged CAL PDZ binding inhibitors, primary screen, biochemical, fluorescence polarization, HTS | hit rate 0.92% among 300,000 | inhibition, % at 24.9 µM | purified CAL PDZ, TMR-peptide fluorescence polarization, 1 h | Golgi-associated PDZ and coiled-coil motif-containing protein (Homo sapiens), Q9HD26 | AID 602252, 2012;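 active = mean inhibition of at least 30% with at least half of replicates also reaching 30%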;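 note: 0% = DMSO neutral control and 100% = excess unlabeled competitor peptide PRC23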
# Dyrk1A artifact: ADP-Glo luciferase interference without Dyrk1A, dose response, artefact control for Dyrk1A inhibitor project, biochemical, luminescence, cherry-pick, set 02 | shares compounds with DYRK1A inh | ADP-Glo luciferase artifact assay, no Dyrk1A | AC50, µM (highest dose often 12 µM), for the others: top-dose activity change, negative = inhibition | 1,300 tested, under 10 active;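 active = fitted half-maximal dose AC50 no more than ten times the top valid tested dose, with luminescence dropping as dose rises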
# The depositor's hits bear a star; · = no result. In the library only some 1.7% were active in any assay of this set; here they are far more common.
nr | structure | UUG fidelity | CAL PDZ FP-1 | CDK5 inh | dFosB activator
1 | COc1ccc2[nH]c3c(c2c1)CCNC3=O | -13 | 0 | 3 | 0
2 | CC(C)NC(=O)N(C)C[C@@H]1Oc2ccc(NC(=O)Nc3ccccc3)cc2C(=O)N([C@@H](C)CO)C[C@H]1C | -24 | · | · | ·
3 | CC(C)NS(=O)(=O)c1ccc(OCC(=O)N(C)Cc2ccccc2)cc1 | -19 | -1 | 1 | 0
4 | CN(C)S(=O)(=O)c1ccc(Cl)c(C(=O)Nc2cccc3ncccc23)c1 | -4 | -1 | 4 | -5
5 | COC(=O)c1nccc2c1[nH]c1ccccc12 | -12 | -2 | 2 | -19
6 | COC(=O)c1c(O)c2ccccc2[nH]c1=O | -6 | -1 | 2 | 4
7 | O=Cc1ccc(Oc2cnccn2)cc1 | · | -2 | 4 | 1
8 | O=C1NC(=O)/C(=C\c2ccc(Oc3cnccn3)cc2)S1 | · | -2 | -1 | -2
9 | CCOc1ccc(N(C)c2ccc(/C=C3/SC(=S)NC3=O)cc2)cc1 | -4 | 1 | 1 | -15
10 | O=C1NC(=S)S/C1=C/c1ccc(Oc2cnccn2)cc1 | · | -2 | -4 | -7

nr | DYRK1A inh | CAL PDZ FP-2 | Dyrk1A artifact
1 | 65* | -7 | 10%
2 | · | · | ·
3 | 83* | · | 5%
4 | 85* | · | 7%
5 | 66* | -2 | 9%
6 | 7 | -5 | ·
7 | 1 | 1 | ·
8 | 59* | -1 | 10%
9 | -6 | 3 | ·
10 | 65* | -4 | 10%

# Other results follow.
nr | structure | UUG fidelity | CAL PDZ FP-1 | CDK5 inh | dFosB activator
11 | C[C@@H]1CN([C@@H](C)CO)C(=O)c2cc(Br)cnc2O[C@@H]1CN(C)C(=O)C1CCOCC1 | 44 | · | · | ·
12 | c1cnc2ncc3sccc3c2c1 | · | -2 | 0 | -5
13 | C[C@H](CO)N1C[C@H](C)[C@H](CN(C)C(=O)Nc2ccc3c(c2)OCO3)OCCCC[C@H](C)Oc2ccc(NC(=O)NC3CCCCC3)cc2C1=O | -3 | · | · | ·
14 | O=C1CC(c2ccc(S(=O)(=O)NC3CC3)cc2)CN1 (configuration not stated) | -23 | -1 | -1 | 5
15 | Cc1nc(NC(=O)c2ccccc2)sc1-c1csc(NCc2ccco2)n1 | -16 | 0 | 1 | -6
16 | O=C(c1ccc(Cl)c(Cl)c1)N1CCC(=O)N(C(COCc2cccc(C(F)(F)F)c2)Cc2ccccc2)CC1 (configuration not stated) | 2 | 0 | 0 | 0
17 | Cc1cccc(COCC(Cc2ccccc2)N2CCN(C(=O)c3ccc(Cl)c(Cl)c3)CCC2=O)c1 (configuration not stated) | -15 | -1 | 1 | -7
18 | O=C(C[C@H]1C=C[C@H](NC(=O)Nc2ccccc2)[C@H](CO)O1)NCc1cccc(F)c1 | 13 | · | · | ·
19 | CC(C)NC(=O)Nc1ccc2c(c1)C(=O)N([C@H](C)CO)C[C@H](C)[C@H](CN(C)Cc1ccc(C(=O)O)cc1)OCCCC[C@H](C)O2 | 8 | · | · | ·
20 | COc1ccc(CN2C[C@@H](C)[C@H](OC)CN(C)C(=O)c3ccc(NC(=O)C4CC4)cc3OC[C@H]2C)cc1 | -5 | · | · | ·
21 | CCOC(=O)C1CCCN(c2c(NCCCN3CCCC(C)C3)c(=O)c2=O)C1 (configuration not stated) | 14 | -1 | 2 | -9
22 | CCOC(=O)C1CCCN(c2c(NCCN(C)Cc3ccccc3)c(=O)c2=O)C1 (configuration not stated) | 0 | 0 | 0 | -6
23 | CCOC(=O)C1CCCN(c2c(NCCc3cccc(C)c3)c(=O)c2=O)C1 (configuration not stated) | · | -1 | 1 | -2

nr | DYRK1A inh | CAL PDZ FP-2 | Dyrk1A artifact
11 | · | · | ·
12 | 59* | -5 | 9%
13 | · | · | ·
14 | 58* | · | 10%
15 | 67* | -1 | 7%
16 | 53* | 1 | 6%
17 | 5 | -1 | ·
18 | · | · | ·
19 | · | · | ·
20 | · | · | ·
21 | 59* | · | 7%
22 | 61* | · | 6%
23 | -3 | 13 | ·

# Three of the entries above in order of the Dyrk1A artifact value, falling.
nr | structure | UUG fidelity | CAL PDZ FP-1 | CDK5 inh | dFosB activator
12 | c1cnc2ncc3sccc3c2c1 | · | -2 | 0 | -5
15 | Cc1nc(NC(=O)c2ccccc2)sc1-c1csc(NCc2ccco2)n1 | -16 | 0 | 1 | -6
16 | O=C(c1ccc(Cl)c(Cl)c1)N1CCC(=O)N(C(COCc2cccc(C(F)(F)F)c2)Cc2ccccc2)CC1 (configuration not stated) | 2 | 0 | 0 | 0

nr | DYRK1A inh | CAL PDZ FP-2 | Dyrk1A artifact
12 | 59* | -5 | 9%
15 | 67* | -1 | 7%
16 | 53* | 1 | 6%
